From PubChem BioAssay AID588453 (National Center for Advancing Translational Sciences (NCATS), 2011) come the findings set out here.

Protein sequences, listed by entry. Tags and fused reporters are not part of them.
UniProt O89049, whole entry, looked up: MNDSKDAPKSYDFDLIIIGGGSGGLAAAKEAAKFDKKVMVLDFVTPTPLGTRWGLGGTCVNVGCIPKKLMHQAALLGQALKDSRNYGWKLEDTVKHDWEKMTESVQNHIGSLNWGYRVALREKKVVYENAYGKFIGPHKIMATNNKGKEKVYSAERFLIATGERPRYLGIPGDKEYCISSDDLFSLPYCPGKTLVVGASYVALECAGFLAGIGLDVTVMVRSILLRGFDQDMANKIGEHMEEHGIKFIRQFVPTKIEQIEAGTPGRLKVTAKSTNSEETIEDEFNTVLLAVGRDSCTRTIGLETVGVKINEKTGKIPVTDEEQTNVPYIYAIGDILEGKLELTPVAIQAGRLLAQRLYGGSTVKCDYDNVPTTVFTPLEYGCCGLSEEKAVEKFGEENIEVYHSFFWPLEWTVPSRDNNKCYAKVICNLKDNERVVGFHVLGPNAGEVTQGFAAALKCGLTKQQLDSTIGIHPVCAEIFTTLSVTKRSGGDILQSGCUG

SMILES strings stand for the structures. The entries are a selection whose mix differs from that of the whole data set. Inconclusive results are not listed. Where a call stands in place of a potency, no number is given. Calls of active or inactive are those of the source. Calls come from the whole dose curve; as a rule, active = well fitted inhibition curve with a large enough effect; inconclusive = small, poorly fitted or top-dose-only effect; inactive = no such curve, though single readings can be large or run the other way.
Potency is the fitted concentration of half-maximal effect.

The assay has as its target Thioredoxin reductase 1, cytoplasmic (Rattus norvegicus) (UniProt O89049). In words: qHTS Assay for Inhibitors of Mammalian Selenoprotein Thioredoxin Reductase 1 (TrxR1): qHTS. Note: nearly all actives have a fitted effect of over 65% in size. Conditions: recombinant rTrxR1, NADPH fluorescence consumption, selenite substrate; series mostly up to 114 µM. In general terms: Quantitative high-throughput screening tests each substance at several concentrations.
As for `c1nnnn1CCn1cnnn1`, the activity change, negative = inhibition entry is “inactive”.
For the compound `O=[N+]([O-])c1ccc(O)c(/C=N/Nc2ccc([N+](=O)[O-])cc2[N+](=O)[O-])c1`, the activity change, negative = inhibition result was “inactive”.
`CC(=O)NC(SC(=S)N(C)C)C(Cl)(Cl)Cl` (centres undefined): the Potency was active: 20 µM.
As to `O=[N+]([O-])c1ncn(CCn2cnc([N+](=O)[O-])n2)n1`, the activity change, negative = inhibition entry was “inactive”.
For `O=[As](O)(c1ccccc1)c1ccc(O)cc1`, the activity change, negative = inhibition result is “inactive”.
In the case of `C(Cc1nn[nH]n1)Cc1nn[nH]n1`, the activity change, negative = inhibition result is “inactive”.
As for `Nc1ccc([As](=O)(O)c2ccc([N+](=O)[O-])cc2)cc1`, the activity change, negative = inhibition entry is “inactive”.
Turning to `O=C(OC1CN2CCC1CC2)c1cccc(Cl)c1` (centres undefined), the activity change, negative = inhibition entry is “inactive”.
For the compound `COc1ccc(N)c([N+](=O)[O-])c1[N+](=O)[O-]`, the activity change, negative = inhibition entry was “inactive”.
The same measure, in the same setting: in the case of `O=P(Nc1ccccn1)(c1ccc(Br)cc1)c1ccc(Br)cc1` it was “inactive”; in that of `CN(C)C1(CNC(=O)c2ccc(Cl)c(S(N)(=O)=O)c2)CCCCC1`, “inactive”.
With `O=P(Nc1nc2ccccc2s1)(c1ccccc1)c1ccccc1`, the activity change, negative = inhibition entry was “inactive”.
With `C[C@H]1OP(=O)(Oc2ccccc2)[C@H](O)[C@H](O)[C@H]1N=[N+]=[N-]` (some centres undefined), the activity change, negative = inhibition entry was “inactive”.
As for `COC(=O)c1cc2c(s1)N=C(c1ccccc1)N(C)P2(=O)N1CCOCC1` (centres undefined), the activity change, negative = inhibition result was “inactive”.
On to `CC(=O)NC(SC(=S)N(CC(C)C)CC(C)C)C(Cl)(Cl)Cl` (centres undefined), for which the activity change, negative = inhibition result was “inactive”.
`Cc1ccc(OP(=O)(Nc2ccccn2)Oc2ccc(C)cc2)cc1`: the activity change, negative = inhibition result is “inactive”.
As to `O=C(OC1CN2CCC1CC2)c1ccccc1` (centres undefined), the activity change, negative = inhibition entry is “inactive”.
As for `CCC(=O)N1C2C3N(C(=O)CC)C1C1N(C(=O)CC)C(C(N1C(=O)CC)N3C(=O)CC)N2C(=O)CC`, the activity change, negative = inhibition entry was “inactive”.
As to `CC(NC(=O)COC(=O)C(O)(c1ccccc1)c1ccccc1)c1ccccc1` (centres undefined), the activity change, negative = inhibition entry was “inactive”.
Turning to `Cc1ccccc1OP(=O)(Nc1ccccn1)Oc1ccccc1C`, the activity change, negative = inhibition result is “inactive”.
With `O=c1c2cc([N+](=O)[O-])ccc2[nH]c2c([N+](=O)[O-])cc([N+](=O)[O-])cc12`, the Potency is active: 3.16 µM.
As for `CN(C)C(=O)Oc1noc2ccccc12`, the activity change, negative = inhibition entry is “inactive”.
On the same count and under the same terms, for `CCNC(=S)/N=C(\N)N[N+](=O)[O-]` the value was “inactive”; for `O=C(NC1CCS(=O)(=O)C1)NP(=S)(Oc1ccccc1)Oc1ccccc1` (centres undefined), “inactive”; for `c1ccc(-c2nn[nH]n2)c(-c2nn[nH]n2)c1`, “inactive”.
As to `Cc1ccc(NP(=O)(Oc2cccc(C)c2)Oc2cccc(C)c2)nc1`, the activity change, negative = inhibition entry was “inactive”.
For the compound `O=[N+]([O-])c1cc([N+](=O)[O-])c2nc[nH]c2c1`, the activity change, negative = inhibition result is “inactive”.
`O=P1(N(CCCl)CCCl)OCCC2CCCCN21` (centres undefined): the activity change, negative = inhibition is inactive: 17.2% [at 2.29 µM].
With `CC(=O)c1ccc(N2CC2c2ccncc2)cc1` (centres undefined), the activity change, negative = inhibition result is “inactive”.
In the case of `N#C/C(=C\c1ccc(N(CCBr)CCBr)cc1)C(N)=O`, the activity change, negative = inhibition was inactive: -20.1% [at 11.4 µM].
On the same count and under the same terms, in the case of `COC(=O)C1(C)COP(=O)(NCc2ccccc2)OC1` (centres undefined) it was inactive: 5.24% [at 11.4 µM]; in that of `Cc1ccccc1CN(C)C(=O)COC(=O)C(O)(c1ccccc1)c1ccccc1`, “inactive”.
With `C[C@H]1OP(=O)(Oc2ccccc2)C[C@@H]2O[C@@H]21` (some centres undefined), the activity change, negative = inhibition entry was “inactive”.
Still for that read-out and setting: in the case of `C[C@@H]1C=CCP(=O)(Oc2ccccc2)O1` (some centres undefined) it was “inactive”; in that of `CC(=O)Nc1ccc([As](=O)(O)O)c(O)c1`, “inactive”; in that of `O=P1(Nc2nc3ccc(Cl)cc3s2)COc2ccccc2O1` (centres undefined), “inactive”.
On the same count and under the same terms, in the case of `CCOc1ccc(C2=NCC(CBr)S2)cc1` (centres undefined) it was “inactive”.
`CCc1cc(O)c([N+](=O)[O-])c(C)c1[N+](=O)[O-]`: the activity change, negative = inhibition entry was “inactive”.
With `CC(C)(C)C(=O)NC(Sc1ccccc1)C(Cl)(Cl)Cl` (centres undefined), the activity change, negative = inhibition result is “inactive”.
